The text below walks through data of ChEMBL document CHEMBL3352549, “Discovery, biological evaluation, and crystal structure of a novel nanomolar selective butyrylcholinesterase inhibitor” (J Med Chem, 2014).

By UniProt entry, the sequences of proteins in these tests, tags left out. Where a name states a change or a piece, a line headed by the entry shows the natural chain unless it says otherwise.
UniProt P22303: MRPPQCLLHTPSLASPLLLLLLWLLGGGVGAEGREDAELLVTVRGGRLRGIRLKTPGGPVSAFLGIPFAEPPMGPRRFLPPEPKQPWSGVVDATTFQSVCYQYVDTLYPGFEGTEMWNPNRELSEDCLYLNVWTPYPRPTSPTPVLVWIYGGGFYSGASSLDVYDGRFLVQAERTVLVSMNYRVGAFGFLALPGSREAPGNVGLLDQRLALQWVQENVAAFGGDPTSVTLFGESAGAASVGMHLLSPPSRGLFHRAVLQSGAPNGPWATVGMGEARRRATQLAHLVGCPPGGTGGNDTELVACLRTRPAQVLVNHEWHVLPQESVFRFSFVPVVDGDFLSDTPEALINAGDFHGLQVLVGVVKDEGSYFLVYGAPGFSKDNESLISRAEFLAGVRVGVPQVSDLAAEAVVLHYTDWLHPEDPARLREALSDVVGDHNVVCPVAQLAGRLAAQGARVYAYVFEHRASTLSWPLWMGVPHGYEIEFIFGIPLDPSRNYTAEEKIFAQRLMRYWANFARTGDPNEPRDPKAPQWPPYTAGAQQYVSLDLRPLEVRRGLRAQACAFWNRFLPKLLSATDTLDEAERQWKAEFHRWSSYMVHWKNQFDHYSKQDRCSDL

The test concerns the target Acetylcholinesterase (Homo sapiens, UniProt P22303).

`CC(C)c1ccc(NC(=O)Oc2ccc3c(c2)[C@]2(C)CCN(C)[C@@H]2N3C)cc1` [4-ISOPROPYLPHENSERINE]: the IC50 was determined as 0.75 µM.
